Bioassay records deposited in PubChem BioAssay by National Center for Advancing Translational Sciences (NCATS).
miR-21 reporter = miR-21 reporter, rising signal | AID 2288 | HeLa miR-21 FLuc reporter, luciferase, 48 h | 340,000 tested, under 10 active | Potency, µM (doses to about 38.3 µM), for inactives: at the top dose reporter change, positive = more light; active = well fitted rising curve with a large enough effect; inconclusive = small, poorly fitted or top-dose-only effect; inactive = no such curve, though single readings can be large or run the other way;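 note: % of control where 0% means no effect; miR-21 action dims this reporter so a rising signal means less miR-21 action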
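Compounds were titrated across several concentrations (up to approximately 40 uM) and incubated 48 hours with HeLa miR-21-FLuc reporter cells (miR-21 target sequence downstream of FLuc, endogenous miR-21). Readout was firefly luciferase luminescence after lytic detection reagent.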
Nrf2 activator = activates Nrf2 signaling | AREc32 ARE-luciferase reporter (MCF7-derived line), luminescence, 24 h | Potency, µM (highest dose often 46.1 µM), without a hit: top-dose activation, hits mostly activators | 410,000 compounds, 0.31% hits | AID 624171; further: potency means the concentration at half of the fitted maximal effect; % of control where 0% means no effect; nearly all actives have a fitted effect of over 65% in size
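Quantitative high-throughput format: AREc32 reporter cells, 1000 per well, received compound by pin transfer and were incubated 24 hr at 37 deg C, 5% CO2, before Steady-Glo luminescence detection.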
A549 viability = counter-screen for Nrf2 inhibitors: cytotoxicity in A549 cells; A549 ARE-Fluc cells, CellTiter-Fluor viability, 18-24 h; 390,000 compounds, 0.16% hits; AID 504648; Potency, µM (doses to about 46 µM), without a hit: at the highest dose activity change, negative = cytotoxicity, actives largely listed as inhibitors; further: potency means the concentration at half of the fitted maximal effect; on the % scale 0 is the no-effect control and ±100 the full control effect
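A549 ARE_Fluc cells in 5% FBS OPTI-MEM were exposed to compounds in concentration-response for 18-24 h at 37 deg C. Viability was read by CellTiter-Fluor fluorescence (Ex 405/Em 525) after 30 min, before the luciferase read.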
p53 reactivation = re-activators of mutant p53; 320,000 compounds, 0.063% hits; Potency, µM (doses to about 92.2 µM), inactives show at the highest dose activity change, positive = activation, actives largely listed as activators; H1299 p53-A138V BP100-luciferase reporter, luminescence, 24 h; further: potency means the concentration at half of the fitted maximal effect; % of control where 0% means no effect; nearly all actives have a fitted effect of over 45% in size
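p53-null H1299 cells stably carrying temperature-sensitive p53-A138V and a BP100-luciferase reporter were pinned with compounds (4-point, 1:5 series) and held 24 hrs at 37 deg C. Luminescence was read 10 min after detection reagent.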
ClpP mod = qHTS Assay for Activators of ClpP | ATP-dependent Clp protease proteolytic subunit (Bacillus subtilis (strain 168)), P80244 | 340,000 compounds, 1.9% hits | Potency, µM (highest dose often 57.5 µM), for inactives: at the top dose activity change, negative = active | purified B. subtilis ClpP, FRET peptide cleavage, 20 min | AID 651965, 2013; active means well fitted falling curve with a large enough effect; inconclusive means small, poorly fitted or top-dose-only effect; inactive means no such curve, though single readings can be large or run the other way; further: potency means the concentration at half of the fitted maximal effect; the source files actives as falling curves though it sought activators and does not explain the sign; nearly all actives have a fitted effect of over 65% in size
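Purified B. subtilis ClpP, 10 microg/mL final in Tris/HCl pH8 with KCl, BSA, glycerol and Tween-20, cleaved an Abz/nitrotyrosine-quenched decapeptide. Fluorescence (ex 320, em 430) was read at 0 and 20 min at room temperature. Delta was normalized to 5.8 microM ADEP and DMSO/no-enzyme controls.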
Nrf2 block = Nrf2 pathway inhibition | 360,000 compounds, 2.1% hits | Potency, µM (doses to about 46 µM), for inactives: at the top dose activity change, negative = inhibition, most hits filed as inhibitors | A549 ARE-Fluc reporter, luciferase luminescence, 18-24 h | AID 504444; further: potency means the concentration at half of the fitted maximal effect; on the % scale 0 is the no-effect control and ±100 the full control effect; nearly all actives have a fitted effect of over 60% in size
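Reporter: ARE-Fluc in A549. Exposure: 18-24 h, 37 °C, 5% CO2, 5% FBS OPTI-MEM. Readouts: fluorescent cytotoxicity (CellTiter-Fluor), then luminescent Nrf2 signal after BugLite.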
* = called active by the depositor; ? = inconclusive; / = no result; ! = not confirmed by another sample. Most compounds without a hit are left out; they make up all but 3.7% or so of the library. Unless noted, the call rests on the fitted dose curve; in most records, active means well fitted curve in the direction sought with a large enough effect; inconclusive means small, poorly fitted or top-dose-only effect, or another doubt; inactive means no such curve, though single readings can be large; an effect the other way counts as inactive or inconclusive.

1	Cc1ccc(Nc2c(-c3c[nH]c4ccccc34)nc3cc(C)ccn23)cc1
2	Cc1ccn2c(Nc3ccccc3)c(-c3c[nH]c4ccccc34)nc2c1
3	CC1(C)CC(=O)c2cc(C(=O)NC3CCSC3=O)c(=O)n(-c3ccccc3)c2C1 (stereo not given)
4	O=C1CCCc2c1cc(C(=O)NC1CCSC1=O)c(=O)n2-c1ccccc1 (stereo not given)
5	COc1ccc(CCNC(=O)c2ccc3ccccc3n2)cc1OC
6	CCOc1ccc(CCNC(=O)c2ccc3ccccc3n2)cc1OCC
Assay by compound,1,2,3,4,5,6
Nrf2 block,3.2%,13.9%,0.0%,8.9%,23.1µM*,?
miR-21 reporter,-45.8%,-37.2%,-5.3%,-1.9%,6.7%,-25.9%
A549 viability,-18.3%,-16.2%,-3.1%,-4.9%,-13.1%,-7.4%
ClpP mod,28.2µM*,4.1%,25.1µM*,25.1µM*,/,-4.0%
Nrf2 activator,17.2%,16.3%,0.0%,-0.3%,4.3%,20.0%
p53 reactivation,/,/,2.4%,-3.5%,-4.7%,22.6%

7	COc1ccc(CCNC(=O)c2ccc(-c3ccc([N+](=O)[O-])cc3)o2)cc1OC
8	COc1ccc(CCNC(=O)c2nc(-c3cccs3)no2)cc1OC
9	COc1ccc(CNC(=O)c2ccc3ccccc3n2)cc1OC
10	Cc1ccc(C)c(C(=O)COc2ccccc2[N+](=O)[O-])c1
11	CCCCn1c(NS(=O)(=O)c2ccc(C)cc2)c(S(=O)(=O)c2ccccc2)c2nc3ccccc3nc21
12	Cc1ccc(S(=O)(=O)c2c(N)n(CC3CCOC3)c3nc4ccccc4nc23)cc1 (stereo not given)
Assay by compound,7,8,9,10,11,12
Nrf2 block,25.9µM*,20.6µM*,13µM*,-3.7%,-12.8%,?
miR-21 reporter,8.3%,7.4%,8.1%,-4.3%,18.4%,0.6%
A549 viability,-2.1%,-17.4%,-15.8%,11.7%,-1.0%,-25.8%
ClpP mod,-3.2%,/,-14.5%,-1.4%,25.1µM*,12.6µM*
Nrf2 activator,0.6%,3.5%,2.6%,22.4µM*,0.0%,-0.2%
p53 reactivation,4.6%,-6.0%,-7.8%,-37.1%,?,-0.7%

13	Nc1c(S(=O)(=O)c2cccc(Cl)c2)c2nc3ccccc3nc2n1CCN1CCOCC1
14	COC(=O)c1sc2cccc(F)c2c1S(=O)(=O)NCc1ccccc1Cl
15	COC(=O)c1sc2cccc(F)c2c1S(=O)(=O)NCc1ccc(Cl)cc1
16	COC(=O)c1sc2cccc(F)c2c1S(=O)(=O)Nc1cc(OC)cc(OC)c1
17	O=S(=O)(c1ccccc1)N1CCN(c2nccc(-c3cccs3)n2)CC1
18	CCNc1nc(NC(C)C)nc(N(C#N)Cc2ccccc2)n1
Assay by compound,13,14,15,16,17,18
Nrf2 block,1.4%,27.9%,-19.2%,16.6%,-9.8%,/
miR-21 reporter,-3.2%,0.4%,-1.7%,6.0%,/,-6.8%
A549 viability,-9.2%,-0.6%,-1.0%,9.8%,3.8%,-2.4%
ClpP mod,31.6µM*,-1.8%,?,0.2%,/,2.8%
Nrf2 activator,0.4%,12.6µM*,11.2µM*,?,/,3.1%
p53 reactivation,0.2%,/,/,/,/,-0.6%

19	CCNc1nc(NC(C)C)nc(N(C#N)CCOc2ccc(Cl)cc2Cl)n1
20	Cc1ccc(Cl)cc1N1CCN(CCCNC(=O)C2COc3ccccc3C2)CC1 (stereo not given)
21	N#C/C(=C\c1ccc(O)c([N+](=O)[O-])c1)c1nc2ccccc2s1
22	COc1ccc(-c2csc(/C(C#N)=C\c3ccc(OC)c([N+](=O)[O-])c3)n2)cc1
23	COc1cc(/C=C(\C#N)c2nc3ccccc3s2)cc([N+](=O)[O-])c1O
24	COc1ccc(-c2csc(/C(C#N)=C\c3ccc(O)c([N+](=O)[O-])c3)n2)cc1OC
Assay by compound,19,20,21,22,23,24
Nrf2 block,9.2µM*,/,?,-23.1%,?,-21.5%
miR-21 reporter,-0.8%,26.0%,-7.9%,-2.3%,-4.9%,-20.8%
A549 viability,/,11.3%,14.6µM*,10.8%,20.6µM*,-13.6%
ClpP mod,0.3%,-3.1%,/,-2.1%,/,/
Nrf2 activator,3.8%,-0.3%,8.1%,-0.5%,0.6%,-0.4%
p53 reactivation,-7.5%,/,-0.7%,-4.0%,3.1%,-1.7%

25	COC(=O)c1ccc(-c2nc3ccc(C)cc3o2)cc1
26	Cc1ccc2oc(-c3ccco3)nc2c1
27	Cc1ccc(-c2nc3cc(C)ccc3o2)cc1
28	Cc1ccc2oc(-c3cccc(N)c3)nc2c1
29	Cc1ccc(-c2nc3cc(N)ccc3o2)cc1
30	CCC(C)Sc1nc2ccccc2c(=O)[nH]1 (stereo not given)
Assay by compound,25,26,27,28,29,30
Nrf2 block,?,?,?,?,?,-21.9%
miR-21 reporter,-48.5%,-41.1%,-54.4%,-15.0%,-0.3%,-22.1%
A549 viability,-6.9%,8.1%,-2.9%,0.0%,-22.3%,-5.3%
ClpP mod,3.55µM*,11.2µM*!,31.6µM*,/,-7.8%,25.1µM*
Nrf2 activator,2.5%,?,9.8%,6.0%,-0.2%,0.0%
p53 reactivation,27.3%,20.5%,/,?,0.9%,18.1%

31	O=C(CCc1nc(-c2ccccc2F)no1)Nc1cccc(C(F)(F)F)c1
32	CN(C)S(=O)(=O)c1cccc(NC(=O)c2ccc(N3CCCC3=O)cc2)c1
33	CCN(c1ccc(NC(=O)c2ccc(N3CCCC3=O)cc2)cc1)C(C)C
34	Cn1c(SCC(N)=O)nnc1-c1ccc(S(=O)(=O)N2CCCC2)cc1
35	Cc1ccc(-n2c(SCC(N)=O)nnc2-c2ccc(S(=O)(=O)N3CCCCC3)cc2)c(C)c1
36	O=C(NNC(=O)c1ccccc1Cl)c1cc2cc(OC(F)(F)F)ccc2[nH]1
Assay by compound,31,32,33,34,35,36
Nrf2 block,?,-18.5%,9.2µM*,2.5%,?,-9.9%
miR-21 reporter,3.4%,/,/,0.5%,1.5%,-3.2%
A549 viability,7.9%,1.0%,-21.2%,2.3%,3.1%,1.9%
ClpP mod,1.0%,1.6%,1.0%,/,25.1µM*,15.8µM*
Nrf2 activator,5.0%,-0.5%,-0.7%,-0.4%,0.0%,-1.0%
p53 reactivation,/,-0.8%,10.7%,3.2%,-1.8%,-6.4%

37	CCCn1cc(S(=O)(=O)c2ccccc2)c(=O)c2cc(F)c(N3CCCCCC3)cc21
38	CCn1cc(S(=O)(=O)c2ccccc2)c(=O)c2cc(F)c(N3CCCC3)cc21
39	CCn1cc(S(=O)(=O)c2ccccc2)c(=O)c2cc(F)c(N3CCN(c4ccccc4)CC3)cc21
40	CCCn1cc(S(=O)(=O)c2ccc(OC)cc2)c(=O)c2cc(F)c(N3CCCC(C)C3)cc21 (stereo not given)
41	CCn1nc(C)c(CNC(=O)c2cc(COc3ccc(F)cc3Cl)on2)c1C
42	CCn1nc(C)c(CNC(=O)c2cc(COc3ccc(C)nc3)on2)c1C
43	COC(=O)c1c(-c2ccccc2)csc1NC(=O)c1c(-c2ccccc2)noc1C
Assay by compound,37,38,39,40,41,42,43
Nrf2 block,?,?,?,?,-92.4%,23.1µM*,?
miR-21 reporter,-0.1%,-10.8%,2.7%,-7.7%,19.3%,4.7%,29.8%
A549 viability,?,-14.6%,-15.4%,-17.9%,-6.6%,-3.0%,0.0%
ClpP mod,28.2µM*,25.1µM*,?,20µM*,0.5%,-0.3%,?
Nrf2 activator,1.2%,-1.8%,-0.4%,-0.3%,3.4%,0.3%,-0.8%
p53 reactivation,/,/,/,/,-1.4%,-3.5%,?

Shown with two lines to a compound: part of the list above
Each structure is followed by: Nrf2 block | miR-21 reporter | A549 viability | ClpP mod | Nrf2 activator | p53 reactivation
37. CCCn1cc(S(=O)(=O)c2ccccc2)c(=O)c2cc(F)c(N3CCCCCC3)cc21
    ? | -0.1% | ? | 28.2µM* | 1.2% | /
43. COC(=O)c1c(-c2ccccc2)csc1NC(=O)c1c(-c2ccccc2)noc1C
    ? | 29.8% | 0.0% | ? | -0.8% | ?
42. CCn1nc(C)c(CNC(=O)c2cc(COc3ccc(C)nc3)on2)c1C
    23.1µM* | 4.7% | -3.0% | -0.3% | 0.3% | -3.5%
39. CCn1cc(S(=O)(=O)c2ccccc2)c(=O)c2cc(F)c(N3CCN(c4ccccc4)CC3)cc21
    ? | 2.7% | -15.4% | ? | -0.4% | /
